Laboratory results from published antibiotic growth screens (doi:10.1038/s41589-023-01349-8).
Some of the results follow.

tested on: A. baumannii ATCC 17978; test: relative growth (fraction of control); higher = less inhibition; conditions: 50 µM

Row | Compound | relative growth
1 | CCOC(=O)CC(=O)N1CCSC1COc1ccccc1OC (stereo unspecified) | 1.25
2 | CC(=O)Oc1ccc(C(c2ccc(OC(C)=O)cc2)c2ccccn2)cc1 | 0.873
3 | COc1ccc(S(=O)(=O)N(C)C[C@H]2Oc3c(NC(=O)Nc4cccc5ccccc45)cccc3C(=O)N([C@H](C)CO)C[C@H]2C)cc1 | 0.955
4 | C[C@H](O)C#Cc1ccc2c(c1)O[C@@H](CN(C)C(=O)c1ccccc1)[C@@H](C)CN([C@@H](C)CO)S2(=O)=O | 1.06
5 | C[C@@H]1CN([C@@H](C)CO)S(=O)(=O)c2ccc(C#CC3(O)CCCC3)cc2O[C@@H]1CN(C)C(=O)Cc1cccnc1 | 0.952
6 | C/C=C/c1ccc2c(c1)O[C@@H](CN(C)Cc1ccc(C(=O)O)cc1)[C@H](C)CN([C@H](C)CO)S2(=O)=O | 0.976
7 | O=C(N/N=C/[C@H](O)[C@H](O)[C@@H](O)[C@@H](O)CO)c1ccccc1O | 0.862
8 | O=C(N[C@@H]1CC[C@@H](CCn2cc(C3(O)CCCC3)nn2)O[C@@H]1CO)C1CCOCC1 | 1.09
9 | C[C@@H]1CN([C@@H](C)CO)C(=O)c2cc(C#CCN(C)C)cnc2O[C@@H]1CN(C)C(=O)c1cnccn1 | 0.973
10 | C=CC[C@@H](CC(=O)N(CCO)Cc1ccccc1)C(=O)NC[C@H](OC(=O)[C@@H](CC=C)Cc1ccc(F)cc1)c1ccccc1 | 1.17
11 | O=C(C[C@@H]1C[C@H]2c3cc(NS(=O)(=O)c4ccc(F)cc4)ccc3O[C@H]2[C@H](CO)O1)N1CCCCC1 | 1.25
12 | O=C(O)C[C@@H]1CC[C@@H]2[C@H](COC[C@H](O)CN2S(=O)(=O)c2ccc(F)cc2)O1 | 1.05
13 | COC(=O)c1c2oc(c1C(=O)OC)C(=O)N[C@@H](Cc1ccccc1)Cn1cc(nn1)[C@@H](Cc1ccccc1)NC(=O)N[C@H](CO)CC2 | 1.23
14 | CCC(=O)NNC(=O)c1cccc(O)c1 | 1.1
15 | COc1ccccc1CNC(=O)C[C@@H]1CC[C@@H]2[C@H](COC[C@@H](O)CN2C(=O)Nc2ccc(F)cc2)O1 | 1.01
16 | Cc1ncc(CO)c(CN)c1O | 1.05
17 | CCOP(=O)(CC(=O)O[C@H]1[C@@H]2OC(=O)[C@@H](Cc3ccc4ccccc4c3)C/C=C\C[C@H](Cc3ccc4ccccc4c3)C(=O)O[C@H]2[C@@H](OC)O[C@@H]1COC(=O)NCCCCCC(=O)NO)OCC | 1.07
18 | CCCCOc1ccc(C(=O)CCN2CCCCC2)cc1.Cl | 0.928
19 | Nc1ccc(C(=O)O)c(O)c1 | 0.979
20 | COc1ccc(S(=O)(=O)N[C@H]2C=C[C@@H](CC(=O)N3CCC(Cc4ccccc4)CC3)O[C@@H]2CO)cc1 | 1.01
21 | CC(=O)Nc1ccc(S(=O)(=O)c2ccc(NC(C)=O)cc2)cc1 | 1.12
